Rows were chosen to be rich in hits. Some 16% of all compounds tested hit in one or more screens of this group.
DT40 TDP1 CPT – DT40-hTDP1 cell growth loss with CPT; chicken DT40 Tdp1-/-;hTDP1 cells + 20 nM CPT, ATP luminescence, 48 h; Potency, µM (doses to about 46.2 µM), inactives show at the highest dose activity change, negative = growth inhibition, usual class: inhibitors; 420,000 tested, 12% active; AID 686979; note: potency is the fitted concentration of half-maximal effect; % is set by controls: 0 for no effect and ±100 for the full control effect; nearly all actives have a fitted effect of over 55% in size
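Cell growth measured by CellTiter-Glo luminescence after a minimum 48 h, 37 C compound exposure with 20 nM CPT in Tdp1-knockout DT40 cells stably expressing hTDP1, seeded 400/well; qHTS titration format.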
uPA surface inh – blocks generation of uPA at the cell surface. cell surface uPA generation assay, qHTS. 330,000 tested, 0.31% active. Potency, µM (top dose mostly 38.3 µM), for the others: top-dose activity change, negative = inhibition, most hits filed as inhibitors. AID 540303; active = well fitted inhibition curve with a large enough effect; inconclusive = small, poorly fitted or top-dose-only effect; inactive = no such curve, though single readings can be large or run the other way; tested in mouse RAW 264.7 cells; note: potency is the fitted concentration of half-maximal effect; % is set by controls: 0 for no effect and ±100 for the full control effect; nearly all actives have a fitted effect of over 55% in size
miR-21 reporter – miR-21 reporter, rising signal; HeLa miR-21 FLuc reporter, luciferase, 48 h; Potency, µM (titrated, usually from 38.3 µM), without a hit: top-dose reporter change, positive = more light; AID 2288; 340,000 tested, under 10 active; active = well fitted rising curve with a large enough effect; inconclusive = small, poorly fitted or top-dose-only effect; inactive = no such curve, though single readings can be large or run the other way;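 further: % of control where 0% means no effect; miR-21 action dims this reporter so a rising signal means less miR-21 action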
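HeLa cells stably expressing CMV-driven firefly luciferase with a downstream miR-21 binding sequence, endogenously expressing miR-21, were treated with titrations (up to about 40uM final) for 48 hours at 37 degree Celsius. Luciferase luminescence was read after lysis.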
TDP1 block – TDP1 (human) enzyme inhibition; Q9NUW8; recombinant TDP1, AlphaScreen DNA substrate cleavage; Potency, µM (top dose mostly 130 µM), for the others: at the top dose activity change, negative = inhibition, hits mostly inhibitors; 350,000 tested, 0.28% active; AID 485290; note: potency is the fitted concentration of half-maximal effect; % is set by controls: 0 for no effect and ±100 for the full control effect; nearly all actives have a fitted effect of over 40% in size
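Tdp1 1 nM final; 15 min RT w/ cpd; substrate 15 nM, 5 min; beads 10 ug/ml, 10 min; AlphaScreen read. Neg ctrl: no enzyme.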
TDP1 cell noCPT – qHTS for Inhibitors of human tyrosyl-DNA phosphodiesterase 1 (TDP1): qHTS in cells in absence of CPT; 420,000 tested, 15% active; Potency, µM (titrated, usually from 46.2 µM), for inactives: top-dose activity change, negative = growth inhibition, usual class: inhibitors; DT40 Tdp1-/- hTDP1 cells, no CPT, ATP luminescence, 48 h; note: potency is the fitted concentration of half-maximal effect; % is set by controls: 0 for no effect and ±100 for the full control effect; nearly all actives have a fitted effect of over 55% in size
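A cellular qHTS used chicken DT40 cells lacking endogenous Tdp1 but carrying stably transfected human TDP1. Compounds were applied without camptothecin, and cell growth kinetics were judged by ATP-dependent luminescence after ≥48 hr.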
The depositor's hits bear a star; ? = inconclusive; · = no result; ! = not active in a repeat; [ ] = dose if it differs, or a comment. Unless noted, calls come from the whole dose curve; as a rule, active = well fitted curve in the direction sought with a large enough effect; inconclusive = small, poorly fitted or top-dose-only effect, or another doubt; inactive = no such curve, though single readings can be large; an effect the other way counts as inactive or inconclusive.

Letters: A = DT40 TDP1 CPT; B = uPA surface inh; C = miR-21 reporter; D = TDP1 block; E = TDP1 cell noCPT
> CCCCN(C)C(=O)Cn1c(SCC(=O)Nc2ccc(C)c(C)c2)nc2ccccc21
  A: ?; B: ·; C: 4%; D: -4%; E: 13µM*
> CCOC(=O)C(C)Oc1ccsc1C(=O)OC (centres undefined)
  A: -2%; B: ·; C: 0%; D: 2%; E: -4%
> Cc1c(OCC(=O)NCCCN2CCOCC2)ccc2c3c(c(=O)oc12)CCCC3
  A: -18%; B: 3%; C: -4%; D: 8%; E: -4%
> Cc1ccccc1OCCn1cc(C(=O)c2ccco2)c2ccccc21
  A: ?; B: ·; C: 15%; D: 5%; E: 23µM*
> COc1ccccc1OCCn1cc(C(=O)c2ccco2)c2ccccc21
  A: ?; B: -1%; C: ?; D: -1%; E: 18µM*
> Cc1ccc(C)c(OCCn2cc(C(=O)O)c3ccccc32)c1
  A: -22%; B: -3%; C: -9%; D: 5%; E: -18%
> COc1cccc(OCCn2cc(C(C)=O)c3ccccc32)c1
  A: 12µM*; B: -2%; C: 7%; D: ·; E: 18µM*
> CC(=O)c1cn(CCOc2cc(C)ccc2C)c2ccccc12
  A: 3.7µM*; B: -11%; C: ?; D: ·; E: 4.1µM*
> COc1cccc(OCCn2cc(/C=N/NC(=O)c3ccncc3)c3ccccc32)c1
  A: ?; B: -6%; C: 1%; D: 8%; E: ?
> COc1cccc(OCCn2cc(C(=O)c3ccco3)c3ccccc32)c1
  A: 16µM*; B: -11%; C: 6%; D: 10%; E: 16µM*
> COc1ccc2nc(C)cc(N/N=C/c3cccc(OC)c3O)c2c1
  A: ?; B: 7%; C: 25%; D: ·; E: ?
> Cc1cc(C)nc(N/N=C/c2ccco2)n1
  A: -3%; B: 7%; C: -16%; D: -3%; E: -17%
> Cc1cc(-c2ccccc2)nc(N/N=C/c2ccco2)n1
  A: 29µM*; B: ·; C: -19%; D: 5%; E: ?
> CN(N)c1nc(-c2ccccc2)cc(-c2ccccc2)n1
  A: ?; B: -3%; C: 17%; D: ·; E: ?
> Cc1cc(N/N=C/c2ccccc2O)c2ccccc2n1
  A: 16µM*; B: ?; C: 4%; D: 5%; E: 16µM*

(cont.)
Letters: A = DT40 TDP1 CPT; B = uPA surface inh; C = miR-21 reporter; D = TDP1 block; E = TDP1 cell noCPT
> CN(/N=C/c1ccc(O)cc1O)c1nc(-c2ccccc2)cc(-c2ccccc2)n1
  A: 21µM*; B: -6%; C: 1%; D: 4%; E: 12µM*
> Cc1cc(-c2ccccc2)nc(N/N=C/c2ccccc2)n1
  A: 21µM*; B: -13%; C: -18%; D: -1%; E: 23µM*
> Clc1ccccc1-c1nc(-c2ccc(Br)o2)no1
  A: -27%; B: -15%; C: -45%; D: ·; E: 3%
> CS(=O)c1ccccc1COC(=O)Nc1ccc(Cl)cc1 (centres undefined)
  A: ?; B: -7%; C: -20%; D: 0%; E: -24%
> Cc1ccc(S(=O)(=O)c2c(O)cc(C)c(NS(=O)(=O)c3ccc(Cl)cc3)c2C)cc1
  A: ?; B: ·; C: ?; D: -5%; E: ?
> Cc1cc(-c2ccccc2)nc(N/N=C/c2ccc(N(C)C)cc2)n1
  A: ?; B: -22%; C: ·; D: ·; E: 15µM*
> Cc1cc(-c2ccccc2)nc(N/N=C/c2ccc(O)cc2O)n1
  A: ?; B: -14%; C: 4%; D: 9%; E: 18µM*
> Cc1cc(-c2ccccc2)nc(N/N=C/c2ccc([N+](=O)[O-])cc2)n1
  A: ?; B: -5%; C: -8%; D: 9%; E: ?
> COc1cccc(NC(=O)c2sc3nc4n(c(=O)c3c2C)CCC4)c1
  A: ?; B: -19%; C: -45%; D: 0%; E: 15µM*!
> Cc1c(C(=O)Nc2ccc(Oc3ccccc3)cc2)sc2nc3n(c(=O)c12)CCC3
  A: ?; B: -18%; C: 14%; D: 5%; E: 18µM*
> CC(=O)c1cccc(NC(=O)c2sc3nc4n(c(=O)c3c2C)CCCCC4)c1
  A: ?; B: -2%; C: -9%; D: 2%; E: 23µM*
> CSc1cccc(NC(=O)c2sc3nc4n(c(=O)c3c2C)CCC4)c1
  A: ?; B: -6%; C: -39%; D: 4%; E: -11%
> COc1ccc(NS(=O)(=O)c2cccc(C(=O)NCC(c3ccc(OC)cc3)N3CCCC3)c2)cc1 (centres undefined)
  A: 13µM*; B: -4%; C: ·; D: 1%; E: ?
> COc1ccc(C(CNC(=O)c2cc(S(=O)(=O)NCc3ccccc3)ccc2C)N2CCOCC2)cc1 (centres undefined)
  A: 1%; B: -7%; C: ·; D: ·; E: -20%
> COc1ccc(C(CNC(=O)c2cccc(S(=O)(=O)Nc3ccccc3OC)c2)N2CCCCC2)cc1 (centres undefined)
  A: 18µM*; B: -26%; C: ·; D: ·; E: ?

(next part)
Letters: A = DT40 TDP1 CPT; B = uPA surface inh; C = miR-21 reporter; D = TDP1 block; E = TDP1 cell noCPT
> COc1ccc(C(CNC(=O)c2cccc(N(C)C)c2)N2CCCC2)cc1 (centres undefined)
  A: 23µM*; B: -5%; C: -9%; D: 8%; E: ?
> COc1ccc(NS(=O)(=O)c2cccc(C(=O)NCC(c3ccc(OC)cc3)N3CCCCC3)c2)cc1 (centres undefined)
  A: ?; B: -9%; C: ·; D: ·; E: -29%
> COc1ccc(C(CNC(=O)c2cccc(S(=O)(=O)NCc3ccccc3)c2)N2CCOCC2)cc1 (centres undefined)
  A: ?; B: 2%; C: ·; D: -3%; E: 21µM*
> COc1ccccc1C1CN(Cc2cnn(C)c2C)Cc2ccccc2O1 (centres undefined)
  A: -2%[9.04 µM]; B: ·; C: ·; D: ·; E: -21%
> S=C1N(c2ccccc2)C(c2ccc(Br)cc2)N2CCCN12 (centres undefined)
  A: -19%; B: 4%; C: -2%; D: -3%; E: ?
> Cc1ccc(NC(=O)CCOc2ccccc2C)cc1F
  A: ?; B: 3%; C: -37%; D: 4%; E: ?
> O=C(COc1ccc(Br)cc1)N(Cc1cccs1)C1CCS(=O)(=O)C1 (centres undefined)
  A: -27%; B: 8%; C: 2%; D: 1%; E: -5%
> COc1ccccc1C(CNC(=O)c1cccc(S(=O)(=O)Nc2ccc(F)cc2)c1)N1CCCC1 (centres undefined)
  A: ?; B: -3%; C: ·; D: ·; E: 21µM*
> COc1ccc(NS(=O)(=O)c2cccc(C(=O)N/N=C/c3c(F)c(F)c(F)c(F)c3F)c2)cc1
  A: 21µM*; B: ?; C: ·; D: ·; E: 23µM*
> CCC1CCc2sc(C(=O)NCC(c3ccc(OC)cc3)N3CCCC3)cc2C1 (centres undefined)
  A: ?; B: -7%; C: ·; D: 6%; E: 23µM*
> COc1ccc(NS(=O)(=O)c2cccc(C(=O)NCC(c3ccccc3OC)N3CCCC3)c2)cc1 (centres undefined)
  A: ?; B: -1%; C: ·; D: -1%; E: ?
> Cc1cc(C)c2[nH]c(=O)c(CN(Cc3ccco3)C(=O)c3cccs3)cc2c1
  A: ·; B: ·; C: 1%; D: 2%; E: ·
> COc1ccccc1/C=C1\SC(=S)N(CCC(=O)Nc2cc(C)on2)C1=O
  A: -19%; B: -2%; C: -1%; D: -4%; E: ?
> CCC(SC1=N/C(=C/c2ccccc2OC)C(=O)N1c1ccccc1)C(=O)Nc1cc(C)on1 (centres undefined)
  A: 12µM*; B: 12%; C: -3%; D: 4%; E: 8.2µM*
> CN(C(=O)c1ccc(Cl)cc1)c1ccc(OCC(=O)Nc2cc(C(=O)O)ccc2Cl)cc1
  A: -1%; B: 9%; C: ·; D: ·; E: 24%
> COC(=O)[C@]1(Cc2ccccc2)N[C@H](c2ccc(SC3CCCCC3)c(OC)c2)[C@@H]2C(=O)N(C)C(=O)[C@@H]21
  A: ?; B: ?; C: ·; D: 2%; E: ?

One compound at a time (already shown). Screens in order: DT40 TDP1 CPT	uPA surface inh	miR-21 reporter	TDP1 block	TDP1 cell noCPT
Cc1cc(C)c2[nH]c(=O)c(CN(Cc3ccco3)C(=O)c3cccs3)cc2c1 across the screens: ·	·	1%	2%	·
COc1ccccc1/C=C1\SC(=S)N(CCC(=O)Nc2cc(C)on2)C1=O across the screens: -19%	-2%	-1%	-4%	?
COc1ccc(C(CNC(=O)c2cccc(S(=O)(=O)NCc3ccccc3)c2)N2CCOCC2)cc1 (centres undefined) across the screens: ?	2%	·	-3%	21µM*
COc1ccc(NS(=O)(=O)c2cccc(C(=O)NCC(c3ccc(OC)cc3)N3CCCCC3)c2)cc1 (centres undefined) across the screens: ?	-9%	·	·	-29%
